Molecular target: P-gp (Homo sapiens, UniProt P08183)
Assay: Bidirectional transport of [^3H]-digoxin across Caco-2 monolayers
Conditions: [^3H]-digoxin alone (non-treated monolayers)

Amino acid sequences for entries named in this document (tags omitted).
UniProt P08183, whole entry: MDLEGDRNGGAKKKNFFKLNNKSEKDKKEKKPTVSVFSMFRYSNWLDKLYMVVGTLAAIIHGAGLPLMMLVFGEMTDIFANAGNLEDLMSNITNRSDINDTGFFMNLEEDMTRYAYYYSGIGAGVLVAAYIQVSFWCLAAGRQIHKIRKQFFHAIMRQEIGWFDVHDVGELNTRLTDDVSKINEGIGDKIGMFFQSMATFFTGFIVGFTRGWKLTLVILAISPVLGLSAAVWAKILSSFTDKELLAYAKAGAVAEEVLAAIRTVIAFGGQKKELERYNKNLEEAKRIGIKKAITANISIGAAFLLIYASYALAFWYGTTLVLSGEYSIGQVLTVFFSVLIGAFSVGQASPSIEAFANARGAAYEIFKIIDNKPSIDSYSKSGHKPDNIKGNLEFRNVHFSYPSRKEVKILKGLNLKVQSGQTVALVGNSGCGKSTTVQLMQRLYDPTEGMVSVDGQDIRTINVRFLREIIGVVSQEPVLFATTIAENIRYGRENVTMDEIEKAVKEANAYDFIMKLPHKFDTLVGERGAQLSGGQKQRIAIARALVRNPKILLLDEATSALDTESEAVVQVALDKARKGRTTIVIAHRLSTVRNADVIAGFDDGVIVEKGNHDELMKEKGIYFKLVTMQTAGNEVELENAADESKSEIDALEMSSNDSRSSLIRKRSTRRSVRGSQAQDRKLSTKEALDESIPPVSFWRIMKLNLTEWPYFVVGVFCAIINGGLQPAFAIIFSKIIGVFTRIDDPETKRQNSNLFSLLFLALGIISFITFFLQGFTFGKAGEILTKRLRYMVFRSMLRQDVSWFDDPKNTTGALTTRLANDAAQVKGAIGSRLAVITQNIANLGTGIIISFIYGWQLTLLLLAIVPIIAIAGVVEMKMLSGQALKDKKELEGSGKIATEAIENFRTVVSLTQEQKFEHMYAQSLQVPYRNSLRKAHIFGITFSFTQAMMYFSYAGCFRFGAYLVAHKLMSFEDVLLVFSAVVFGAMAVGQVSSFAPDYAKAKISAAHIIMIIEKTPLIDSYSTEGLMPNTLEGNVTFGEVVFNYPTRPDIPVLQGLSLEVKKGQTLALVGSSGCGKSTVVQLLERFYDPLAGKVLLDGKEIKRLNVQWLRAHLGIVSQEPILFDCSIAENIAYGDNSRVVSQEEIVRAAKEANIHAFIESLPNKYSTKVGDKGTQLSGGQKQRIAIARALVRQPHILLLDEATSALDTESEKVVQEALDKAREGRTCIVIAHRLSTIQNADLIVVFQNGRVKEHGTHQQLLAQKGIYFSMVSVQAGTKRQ

C[C@H]1O[C@@H](O[C@H]2[C@@H](O)C[C@H](O[C@H]3[C@@H](O)C[C@H](O[C@H]4CC[C@@]5(C)[C@H](CC[C@@H]6[C@@H]5C[C@@H](O)[C@]5(C)[C@@H](C7=CC(=O)OC7)CC[C@]65O)C4)O[C@@H]3C)O[C@@H]2C)C[C@H](O)[C@@H]1O [[^3H]-digoxin]
efflux ratio (ER) value: 10.1

Source: PMC10188607, “Quaternization of high molecular weight chitosan for increasing intestinal drug absorption using Caco-2 cells as an in vitro intestinal model” (Scientific Reports, 2023)
